# Laboratory results reported in paper PMC8958505, “Discovery of Potential Neuroprotective Agents against Paclitaxel-Induced Peripheral Neuropathy” (Journal of Medicinal Chemistry, 2022).
# Structures can show the parent of a compound that is named as a salt. Where two headings read alike, the source gives them in different places.
# Key:
# Glutamate, Kainate = experiment: LeadProfilingScreen: Glutamate, Kainate; format: binding, rat; conditions: 10 μM
# Glucocorticoid = Glucocorticoid (Homo sapiens, UniProt P04150); experiment: LeadProfilingScreen: Glucocorticoid; format: binding
# Glutamate, NMDA, Agonism = experiment: LeadProfilingScreen: Glutamate, NMDA, Agonism; format: binding, rat; conditions: 10 μM
# Thyroid Hormone = experiment: LeadProfilingScreen: Thyroid Hormone; format: binding, rat; conditions: 10 μM
# Interleukin IL-1 R1 = Interleukin IL-1 R1 (Homo sapiens, UniProt P14778); experiment: LeadProfilingScreen: Interleukin IL-1 R1; format: binding
# Adrenergic α1A = Adrenergic α1A (Homo sapiens, UniProt P35348); experiment: LeadProfilingScreen: Adrenergic α1A; format: binding
# Neuropeptide Y Y2 = Neuropeptide Y Y2 (Homo sapiens, UniProt P49146); experiment: LeadProfilingScreen: Neuropeptide Y Y2; format: binding
# [1] = molecular target: Nicotinic Acetylcholine α1, Bungarotoxin (Homo sapiens, UniProt P02708+P07510+Q07001); format: binding; conditions: 10 μM
# [2] = molecular target: Platelet Activating Factor (PAF) (Homo sapiens, UniProt P25105); experiment: LeadProfilingScreen: Platelet Activating Factor (PAF); format: binding
# Potassium Channel [KATP] = Potassium Channel [KATP] (Cricetus cricetus, UniProt Q09427); experiment: LeadProfilingScreen: Potassium Channel [KATP]; format: binding, hamster; conditions: read-out: Inhibition (%), Potassium Channel [KATP]
# From the text: LeadProfilingScreen (Total # of Assays: 67)
# To evaluate, in LeadProfilingScreen, the activity of test compound CN168 (Panlabs # 1251879). […]
# Summary of Significant Results
# Biochemical assay results are presented as the percent inhibition of specific binding or activity throughout the report.
# All other results are expressed in terms of that assay's quantitation method.
# • For primary assays, only the lowest concentration with a significant response judged by the assays' criteria, is […]
# • Where applicable, either the secondary assay results with the lowest dose/concentration meeting the significance […]
# • Unless otherwise requested, primary screening in duplicate with quantitative data (e.g., IC50 ± SEM, Ki ± SEM and nH) are shown where applicable for individual requested assays. In screening packages, primary screening in duplicate with semi-quantitative data (e.g., estimated IC50, Ki and nH) are shown where applicable (concentration range of 4 log units); available secondary functional assays are carried out ([…]) and MEC or MIC determined only if active in primary assays >50% at 1 log unit below initial test concentration. […]
# CYP 3A4 = molecular target: T1, CYP 3A4 (Homo sapiens, UniProt P08684); experiment: Cytochrome P450 testing, CYP 3A4; format: in vitro ADME; conditions: testosterone 6-hydroxylation; read-out: Concentration of inhibition (IC50), CYP 3A4
# T1 construct: host or cells: baculovirus-infected insect cells (supersomes)
# From the text: Cytochrome P450 testing of CN016
# The effects of CN016 on the activity of six specific human liver cytochrome P450 isozymes (CYP 1A2, 2C9, 2C19, 2D6, 2E1, 3A4) expressed in baculovirus-infected insect cell supersomes were studied. The reactions used to measure the activity of these enzymes were phenacetin O-deethylation (1A2), diclofenac 4-hydroxylation (2C9), mephenytoin 4-hydroxylation (2C19), dextromethorphan O-demethylation (2D6), chlorzoxazone 6-hydroxylation (2E1) and testosterone 6-hydroxylation (3A4).
# Furafylline, sulfaphenazole, tranylcypromine, quinidine, diethyldithiocarbamate and azamulin were used as reference inhibitors of these enzymes. Incubation mixtures containing no CN016 or reference inhibitors were used as controls. The tested result […]
# Table S4. Result of Cytochrome P450 testing of CN016
# [3] = molecular target: Serotonin (5-Hydroxytryptamine) 5-HT3 (Homo sapiens, UniProt P46098); experiment: LeadProfilingScreen: Serotonin 5-HT3; format: binding
# Adenosine A1 = Adenosine A1 (Homo sapiens, UniProt P30542); experiment: LeadProfilingScreen: Adenosine A1; format: binding
# [4] = molecular target: Transporter, Dopamine (DAT) (Homo sapiens, UniProt Q01959); experiment: LeadProfilingScreen: Transporter, Dopamine (DAT); format: binding
# [5] = Pharmacokinetics after intravenous injection; format: in vivo; conditions: male, mouse, plasma, 5 mg/kg IV, ICR mice, mean ± SD (n = 3)
# Description: Male ICR mice weighed (29–33 g) were obtained from BioLASCO (Taiwan Co., Ltd., Ilan, Taiwan). The animal studies were performed according to NHRI institutional animal care and committee-approved procedures. Food and water were available ad libitum throughout the experiment. A single 5.0 mg/kg dose of CN016 was dissolved in normal saline and was separately administered to mice intravenously. The groups consisted of three mice for each time point. At times 0.03, 0.08, 0.25, 0.5, 1, 2, 4, 6, 8, 16, and 24 h after dosing, blood was collected from groups of three mice at each time point by cardiac puncture. Plasma was separated from blood and stored in a freezer (−80 °C) before LC/MS/MS analysis. In addition, pharmacokinetic analysis of CN016 following intraperitoneal administration (IP, 5 mg/kg) is provided in Figure S2 (Supporting Information).
# ICR mice = experiment: Acute single-dose toxicity study; format: in vivo; conditions: for survival / survival rate: saline
# Description: An acute single-dose toxicity study was conducted in male ICR mice. 7-week-old ICR male mice were intravenous bolus administered with CN016 dissolved in 0.9% sodium chloride solution by using dose escalation procedure to approach the toxicity of CN016. The treatment groups included 50, 100, 300, and 500 mg/kg dose levels and three to six mice for each group. The injection volume was calculated based on the individual body weight. […] Animal body weight was measured once daily during the 14 day observation period of the study. All animals were euthanized with 100% CO2 at the end of the study.
# Endothelin ETA = Endothelin ETA (Homo sapiens, UniProt P25101); experiment: LeadProfilingScreen: Endothelin ETA; format: binding
# Phorbol Ester = experiment: LeadProfilingScreen: Phorbol Ester; format: binding, mouse; conditions: 10 μM
# Melatonin MT1 = Melatonin MT1 (Homo sapiens, UniProt P48039); experiment: LeadProfilingScreen: Melatonin MT1; format: binding
# Dopamine D1 = Dopamine D1 (Homo sapiens, UniProt P21728); experiment: LeadProfilingScreen: Dopamine D1; format: binding
structure (smiles),measurement,setting,value
"O=P(O)(O)CCN1CCC(Nc2cc(N3CCOCC3)nc(NCc3cn(CCCO)nn3)n2)CC1 [CN016, {2-[4-(2-{[1-(3-Hydroxy-propyl)-1H-[1,2,3]triazol-4-ylmethyl]-amino}-6-morpholin-4-yl-pyrimidin-4-ylamino)-piperidin-1-yl]-ethyl}-phosphonic Acid Hydrobromide Salt]","Inhibition (%), Glutamate, Kainate","Glutamate, Kainate",0%
same,inhibition at 10 µM,Glucocorticoid,14%
same,"Inhibition (%), Glutamate, NMDA, Agonism","Glutamate, NMDA, Agonism",-3%
same,"Inhibition (%), Thyroid Hormone",Thyroid Hormone,7%
same,inhibition at 10 µM,Interleukin IL-1 R1,-3%
same,inhibition at 10 µM,Adrenergic α1A,-9%
same,inhibition at 10 µM,Neuropeptide Y Y2,10%
same,"Inhibition (%), Nicotinic Acetylcholine α1, Bungarotoxin",[1],7%
same,"Inhibition (%), Nicotinic Acetylcholine α1, Bungarotoxin","[1]; listed as CN168, 10 µM",-6%
same,inhibition at 10 µM,[2],-6%
same,inhibition at 10 µM,Potassium Channel [KATP],-1%
same,IC50,CYP 3A4,> 100 µM
same,inhibition at 10 µM,[3],-1%
same,inhibition at 10 µM,Adenosine A1,-9%
same,inhibition at 10 µM,[4],0%
same,AUC(0-t) at 24 h,[5],6980 ± 1850 ng·h/mL
same,clearance at 24 h,[5],12.8 ± 2.9 mL/min/kg
same,half-life at 24 h,[5],12.8 ± 3.4 h
same,Vd at 24 h,[5]; read-out: Vss,0.8 ± 0.5 L/kg
same,survival,ICR mice; 50 mg/kg IV,3/3
same,survival rate,ICR mice; 50 mg/kg IV,100%
same,survival,ICR mice; 100 mg/kg IV,6/6
same,survival rate,ICR mice; 100 mg/kg IV,100%
same,survival,ICR mice; 300 mg/kg IV,3/3
same,survival rate,ICR mice; 300 mg/kg IV,100%
same,survival,ICR mice; 500 mg/kg IV,3/3
same,survival rate,ICR mice; 500 mg/kg IV,100%
same,maximum tolerance dose (MTD),"ICR mice; intravenous, ICR mice",> 500 mg/kg
same,inhibition at 10 µM,Endothelin ETA,15%
same,"Inhibition (%), Phorbol Ester",Phorbol Ester,-3%
same,inhibition at 10 µM,Melatonin MT1,6%
same,inhibition at 10 µM,Dopamine D1,-2%
